In US6846802B2, “Macrocyclic NS3-serine protease inhibitors of hepatitis C virus comprising N-cyclic P2 moieties” (priority 2000, dated 2005):
Starred links: 1 amine or outer side, 2 acyl side, 3 side chain; linkers in the order of their positions; H or OH if unused. Positions of bridges follow the written chain, without caps; N, C: chain ends. Non-standard residues stand in square brackets, D forms with d. Residues, ends and D or L forms follow the SMILES beside them. Tic(7-O(CH2)6CO) = O=C([C@@H]1Cc2ccc(OCCCCCCC(=O)[*:3])cc2CN1[*:1])[*:2]; X2 = CCC[C@@H](N[*:1])C(=O)C(=O)[*:2]; X1 = CCC[C@H](N[*:1])C(=O)C(=O)[*:2]; Chg = N[C@H](C(=O)O)C1CCCCC1; Phg = N[C@H](C(=O)O)c1ccccc1

Amino acid sequences for entries named in this document (tags omitted). Residues count along the entry.
UniProt P27958, 1027-1657: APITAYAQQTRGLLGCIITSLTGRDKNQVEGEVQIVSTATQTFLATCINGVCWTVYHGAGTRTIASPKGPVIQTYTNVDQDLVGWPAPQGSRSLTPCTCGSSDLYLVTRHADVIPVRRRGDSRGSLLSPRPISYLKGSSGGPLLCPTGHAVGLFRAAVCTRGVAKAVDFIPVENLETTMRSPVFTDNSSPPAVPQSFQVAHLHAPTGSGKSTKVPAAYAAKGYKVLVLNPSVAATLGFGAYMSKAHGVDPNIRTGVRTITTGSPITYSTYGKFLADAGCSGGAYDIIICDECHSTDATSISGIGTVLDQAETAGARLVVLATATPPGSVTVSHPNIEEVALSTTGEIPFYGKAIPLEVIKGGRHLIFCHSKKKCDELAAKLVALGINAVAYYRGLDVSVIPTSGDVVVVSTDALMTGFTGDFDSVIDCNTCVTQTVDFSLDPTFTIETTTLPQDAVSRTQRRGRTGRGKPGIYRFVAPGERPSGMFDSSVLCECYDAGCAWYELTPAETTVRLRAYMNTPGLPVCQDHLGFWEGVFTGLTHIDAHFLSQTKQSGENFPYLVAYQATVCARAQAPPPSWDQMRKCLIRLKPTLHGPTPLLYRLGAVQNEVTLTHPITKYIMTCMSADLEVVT
UniProt P27958, 1658-1711: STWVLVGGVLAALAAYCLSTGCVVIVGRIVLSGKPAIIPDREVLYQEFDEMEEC

Molecular target: Recombinant heterodimeric HCV NS3/NS4A protease (strain 1a) (Hepatitis C virus genotype 1a, UniProt P27958)
Assay: biochemical

Compound	Ki [nM]
CCC[C@H](NC(=O)[C@@H]1C[C@@H]2CN1C(=O)[C@H](C1CCCCC1)NC(=O)Nc1cccc(c1)OCCCO2)C(=O)C(=O)NCC(=O)N[C@H](C(=O)N(C)C)c1ccccc1 [Compound 26B]	101 to 100000
CCC[C@@H](NC(=O)[C@@H]1[C@H]2OC3CCCOc4cccc(c4)CC(=O)N[C@@H](C4CCCCC4)C(=O)N1C[C@@H]2O3)C(=O)C(=O)NCC(=O)N[C@H](C(=O)N(C)C)c1ccccc1 [Compound 27A]	101 to 100000
CCC[C@H](NC(=O)[C@@H]1[C@H]2OC3CCCOc4cccc(c4)CC(=O)N[C@@H](C4CCCCC4)C(=O)N1C[C@@H]2O3)C(=O)C(=O)NCC(=O)N[C@H](C(=O)N(C)C)c1ccccc1 [Compound 27B]	1 to 100
CCC[C@@H](NC(=O)[C@@H]1[C@H]2OC3CCCOc4cccc(c4)CC(=O)N[C@@H](C4CCCCC4)C(=O)N1C[C@@H]2O3)C(=O)C(=O)NCC(=O)N[C@H](C(=O)OC(C)(C)C)c1ccccc1 [Compound 28A]	101 to 100000
CCC[C@H](NC(=O)[C@@H]1[C@H]2OC3CCCOc4cccc(c4)CC(=O)N[C@@H](C4CCCCC4)C(=O)N1C[C@@H]2O3)C(=O)C(=O)NCC(=O)N[C@H](C(=O)OC(C)(C)C)c1ccccc1 [Compound 28B]	1 to 100
CCC[C@@H](NC(=O)[C@@H]1[C@H]2OC3CCCOc4cccc(c4)CC(=O)N[C@@H](C4CCCCC4)C(=O)N1C[C@@H]2O3)C(=O)C(=O)NCC(=O)N[C@H](C(=O)O)c1ccccc1 [Compound 29A]	101 to 100000
CCC[C@H](NC(=O)[C@@H]1[C@H]2OC3CCCOc4cccc(c4)CC(=O)N[C@@H](C4CCCCC4)C(=O)N1C[C@@H]2O3)C(=O)C(=O)NCC(=O)N[C@H](C(=O)O)c1ccccc1 [Compound 29B]	1 to 100
CCCC(NC(=O)[C@@H]1C[C@@H]2CN1C(=O)[C@H](C1CCCCC1)NC(=O)Cc1cccc(c1)OCCC(C)(C)O2)C(=O)C(=O)NCC(=O)N[C@H](C(=O)OC(C)(C)C)c1ccccc1 (stereo partly shown) [Compound 31]	1 to 100
CCCC(NC(=O)C1C[C@@H]2CN1C(=O)C(C1CCCCC1)NC(=O)CCCCc1cccc(c1)S(=O)(=O)N2)C(=O)C(=O)NCC(=O)N[C@H](C(=O)O)c1ccccc1 (stereo partly shown) [Compound 38A]	101 to 100000
CCCC(NC(=O)C1C[C@@H]2CN1C(=O)C(C1CCCCC1)NC(=O)CCCCc1ccc(cc1)S(=O)(=O)N2)C(=O)C(=O)NCC(=O)N[C@H](C(=O)OC(C)(C)C)c1ccccc1 (stereo partly shown) [Compound 39]	101 to 100000
CCCC(NC(=O)C1C[C@@H]2CN1C(=O)C(C1CCCCC1)NC(=O)CCCCc1ccc(cc1)S(=O)(=O)N2)C(=O)C(=O)NCC(=O)N[C@H](C(=O)O)c1ccccc1 (stereo partly shown) [Compound 40]	101 to 100000
CCCC(NC(=O)C1C[C@@H]2CN1C(=O)C(C1CCCCC1)NC(=O)CCc1ccc(cc1)S(=O)(=O)N2)C(=O)C(=O)NCC(=O)N[C@H](C(=O)OC(C)(C)C)c1ccccc1 (stereo partly shown) [Compound 41]	101 to 100000
CCCC(NC(=O)C1C[C@@H]2CN1C(=O)C(C1CCCCC1)NC(=O)CCc1ccc(cc1)S(=O)(=O)N2)C(=O)C(=O)NCC(=O)N[C@H](C(=O)O)c1ccccc1 (stereo partly shown) [Compound 42]	101 to 100000
CCCC(NC(=O)[C@@H]1C[C@@H]2CN1C(=O)[C@H](C1CCCCC1)NC(=O)Cc1cccc(c1)OCCCN2S(=O)(=O)c1ccccc1)C(=O)C(=O)NCC(=O)N[C@H](C(=O)N(C)C)c1ccccc1 (stereo partly shown) [Compound 43]	1 to 100
CCC[C@@H](NC(=O)[C@@H]1C[C@@H]2CN1C(=O)[C@H](C(C)(C)C)NC(=O)c1cccc(c1)OCCCCO2)C(=O)C(=O)NCC(=O)N[C@H](C(=O)N(C)C)c1ccccc1 [Compound 44A]	101 to 100000
CCC[C@H](NC(=O)[C@@H]1C[C@@H]2CN1C(=O)[C@H](C(C)(C)C)NC(=O)c1cccc(c1)OCCCCO2)C(=O)C(=O)NCC(=O)N[C@H](C(=O)N(C)C)c1ccccc1 [Compound 44B]	101 to 100000
CSCCC(NC(=O)[C@@H]1C[C@@H]2CN1C(=O)[C@H](C(C)(C)C)NC(=O)Cc1cccc(c1)OCCCO2)C(=O)C(=O)NCC(=O)N[C@H](C(=O)N(C)C)c1ccccc1 (stereo partly shown) [Compound 46]	101 to 100000
CCCC[C@@H](NC(=O)[C@@H]1C[C@@H]2CN1C(=O)[C@H](C(C)(C)C)NC(=O)Cc1ccccc1OCCCCO2)C(=O)C(=O)NCC(=O)N[C@H](C(=O)N(C)C)c1ccccc1 [Compound 53A]	101 to 100000
CCC[C@@H](NC(=O)[C@@H]1C[C@H]2CN1C(=O)[C@H](C(C)(C)C)NC(=O)Cc1cccc(c1)OCCCO2)C(=O)C(=O)NCC(=O)N[C@H](C(=O)N(C)C)c1ccccc1 [Compound 56A]	101 to 100000
CCC[C@H](NC(=O)[C@@H]1C[C@H]2CN1C(=O)[C@H](C(C)(C)C)NC(=O)Cc1cccc(c1)OCCCO2)C(=O)C(=O)NCC(=O)N[C@H](C(=O)N(C)C)c1ccccc1 [Compound 56B]	101 to 100000
CCC[C@@H](NC(=O)[C@@H]1Cc2ccc3cc2CN1C(=O)[C@H](C1CCCCC1)NC(=O)CCCCCCO3)C(=O)C(=O)NCC(=O)N[C@H](C(=O)N(C)C)c1ccccc1 [Compound 57A] ([Chg][Tic(7-O(CH2)6CO)][X2]G[Phg]-NMe2; lactam N-2)	101 to 100000
CCC[C@H](NC(=O)[C@@H]1Cc2ccc3cc2CN1C(=O)[C@H](C1CCCCC1)NC(=O)CCCCCCO3)C(=O)C(=O)NCC(=O)N[C@H](C(=O)N(C)C)c1ccccc1 [Compound 57B] ([Chg][Tic(7-O(CH2)6CO)][X1]G[Phg]-NMe2; lactam N-2)	1 to 100

Compound	Ki [nM]
CCC[C@@H](NC(=O)[C@@H]1Cc2ccc3cc2CN1C(=O)[C@H](C1CCCCC1)NC(=O)CCCCCCO3)C(=O)C(=O)NCC(=O)N[C@H](C(=O)O)c1ccccc1 [Compound 59A] ([Chg][Tic(7-O(CH2)6CO)][X2]G[Phg]-OH; lactam N-2)	1 to 100
CCC[C@H](NC(=O)[C@@H]1Cc2ccc3cc2CN1C(=O)[C@H](C1CCCCC1)NC(=O)CCCCCCO3)C(=O)C(=O)NCC(=O)N[C@H](C(=O)O)c1ccccc1 [Compound 59B] ([Chg][Tic(7-O(CH2)6CO)][X1]G[Phg]-OH; lactam N-2)	1 to 100
CCCC(NC(=O)[C@@H]1Cc2ccc3cc2CN1C(=O)[C@H](C1CCCCC1)NC(=O)CCc1ccc(cc1)O3)C(=O)C(=O)NCC(=O)N[C@H](C(=O)OC(C)(C)C)c1ccccc1 (stereo partly shown) [Compound 60]	101 to 100000
CCCC(NC(=O)[C@@H]1Cc2ccc3cc2CN1C(=O)[C@H](C1CCCCC1)NC(=O)CCc1ccc(cc1)O3)C(=O)C(=O)NCC(=O)N[C@H](C(=O)O)c1ccccc1 (stereo partly shown) [Compound 61]	101 to 100000
CCCC(NC(=O)[C@@H]1Cc2ccc3cc2CN1C(=O)[C@H](C1CCCCC1)NC(=O)CCc1ccc(cc1)O3)C(=O)C(=O)NCC(=O)N[C@H](C(=O)N(C)C)c1ccccc1 (stereo partly shown) [Compound 62]	101 to 100000
CCCC(NC(=O)[C@@H]1Cc2ccc3cc2CN1C(=O)[C@H](C1CCCCC1)NC(=O)CCCCc1ccc(cc1)O3)C(=O)C(=O)NCC(=O)N[C@H](C(=O)N(C)C)c1ccccc1 (stereo partly shown) [Compound 63]	101 to 100000
CCCC(NC(=O)[C@@H]1C[C@@H]2CN1C(=O)[C@H](C1CCCCC1)NC(=O)CCc1ccc(cc1)OCCCO2)C(=O)C(=O)NCC(=O)N[C@H](C(=O)N(C)C)c1ccccc1 (stereo partly shown) [Compound 64]	101 to 100000
CCCC(NC(=O)[C@@H]1C[C@@H]2CN1C(=O)[C@H](C1CCCC(C(=O)O)C1)NC(=O)Cc1cccc(c1)OCCCO2)C(=O)C(=O)NCC(=O)N[C@H](C(=O)N(C)C)c1ccccc1 (stereo partly shown) [Compound 65]	1 to 100
CCC[C@@H](NC(=O)[C@@H]1C[C@@H]2CN1C(=O)[C@H](C1CCCCC1)NC(=O)N(C)Cc1cccc(c1)OCCCO2)C(=O)C(=O)NCC(=O)N[C@H](C(=O)N(C)C)c1ccccc1 [Compound 66A]	101 to 100000
CCC[C@H](NC(=O)[C@@H]1C[C@@H]2CN1C(=O)[C@H](C1CCCCC1)NC(=O)N(C)Cc1cccc(c1)OCCCO2)C(=O)C(=O)NCC(=O)N[C@H](C(=O)N(C)C)c1ccccc1 [Compound 66B]	1 to 100
CCC[C@@H](NC(=O)[C@@H]1C[C@@H]2CN1C(=O)[C@H](C1CCCCC1)NC(=O)N(C)Cc1cccc(c1)OCCC(C)(C)O2)C(=O)C(=O)NCC(=O)N[C@H](C(=O)N(C)C)c1ccccc1 [Compound 67A]	101 to 100000
CCC[C@H](NC(=O)[C@@H]1C[C@@H]2CN1C(=O)[C@H](C1CCCCC1)NC(=O)N(C)Cc1cccc(c1)OCCC(C)(C)O2)C(=O)C(=O)NCC(=O)N[C@H](C(=O)N(C)C)c1ccccc1 [Compound 67B]	1 to 100
CCCC(NC(=O)[C@@H]1C[C@@H]2CN1C(=O)[C@H](C1Cc3ccccc3C1)NC(=O)Cc1cccc(c1)OCCC(C)(C)O2)C(=O)C(=O)NCC(=O)N[C@H](C(=O)N(C)C)c1ccccc1 (stereo partly shown) [Compound 68]	1 to 100
CCC[C@@H](NC(=O)[C@@H]1C[C@@H]2CN1C(=O)[C@H](C1CCCCC1)NC(=O)Cc1cccc(c1)OCCCO2)C(=O)C(=O)NCC(=O)N[C@H](C(=O)N(C)C)C1Cc2ccccc2C1 [Compound 69A]	101 to 100000
CCC[C@H](NC(=O)[C@@H]1C[C@@H]2CN1C(=O)[C@H](C1CCCCC1)NC(=O)Cc1cccc(c1)OCCCO2)C(=O)C(=O)NCC(=O)N[C@H](C(=O)N(C)C)C1Cc2ccccc2C1 [Compound 69B]	1 to 100
CCC[C@@H](NC(=O)[C@@H]1C[C@@H]2CN1C(=O)[C@H](C1CCCCC1)NC(=O)Cc1cccc(c1)OCCCCO2)C(=O)C(=O)NCC(=O)N[C@H](C(=O)N(C)C)C1Cc2ccccc2C1 [Compound 70A]	101 to 100000
CCC[C@H](NC(=O)[C@@H]1C[C@@H]2CN1C(=O)[C@H](C1CCCCC1)NC(=O)Cc1cccc(c1)OCCCCO2)C(=O)C(=O)NCC(=O)N[C@H](C(=O)N(C)C)C1Cc2ccccc2C1 [Compound 70B]	1 to 100
CCCC(NC(=O)[C@@H]1C[C@@H]2CN1C(=O)[C@H](C1CCCCC1)NC(=O)Cc1cccc(c1)OCCCCO2)C(=O)C(=O)NCC(=O)N[C@H](COC(C)(C)C)c1ccccc1 (stereo partly shown) [Compound 71]	1 to 100
CCCC(NC(=O)[C@@H]1C[C@@H]2CN1C(=O)[C@H](C1CCCCC1)NC(=O)Cc1cccc(c1)OCCCCO2)C(=O)C(=O)NCC(=O)N[C@H](CO)c1ccccc1 (stereo partly shown) [Compound 72]	1 to 100
CC1(C)CCOc2cccc(c2)CC(=O)N[C@@H](C2Cc3ccccc3C2)C(=O)N2C[C@@H](C[C@H]2C(=O)NC(CC2CCC2)C(=O)C(N)=O)O1 (stereo partly shown) [Compound 73]	101 to 100000
CCC[C@@H](NC(=O)[C@@H]1C[C@@H]2CN1C(=O)[C@H](C1CCCCC1)NC(=O)Cc1cc(C)cc(c1)OCCCO2)C(=O)C(=O)NCC(=O)N[C@H](C(=O)N(C)C)c1ccccc1 [Compound 74A]	101 to 100000
